Tests used:
[1] = target: Aspergillus niger NAD(P)H: Nitrate oxidoreductase (EC 1.6.6.2) (Aspergillus niger, UniProt P36858); test: Nitrate reductase catalyzed RDX transformation
Method: Enzyme preparation and assays. Lyophilized enzyme is suspended in potassium phosphate buffer (50 mM) at pH 7.0 and washed thrice with 2.5 ml of buffer using Biomax-5K membrane centrifuge filter units (Sigma chemicals). The washed enzyme is then suspended in 0.5 ml of buffer and the protein concentration is measured by bicinchoninic acid (BCA) kit (Sigma chemicals) using bovine serum albumin as standard. The native enzyme activity is estimated spectrophotometrically at 340 nm as the rate of oxidation of NADPH in the presence of nitrate.
Nitrate reductase catalyzed RDX transformation is performed under anaerobic conditions in 6 ml glass vials containing one ml of reaction mixture sealed under an atmosphere of argon. […]; 2) RDX and enzyme in buffer (i.e. in the absence of NADPH); and, 3) RDX only in buffer. The samples from liquid and gas phases are withdrawn periodically to analyze for RDX and transformation products as described below. The enzymatic transformation rate of RDX is expressed as μmoles RDX transformed h^−1mg^−1protein.
To study the fate of formamide and hydrazine in the reaction mixture, each chemical (50 μM) is incubated separately with nitrate reductase and NADPH for one hour at pH 7.0 and 30° C. under the same conditions as described above. The residual compounds and their products are analyzed as stated below.
Analytical procedures. RDX is analyzed by a reversed phase-high pressure liquid chromatograph (RP-HPLC) connected to photodiode array (PDA) detector (λ254 nm). […] The MNX and methylenedinitramine are analyzed by a Micromass bench-top single quadrupole mass detector attached to a Hewlett Packard 1100 series HPLC system equipped with a photodiode array detector. […]
Hydrazine is analyzed by a HPLC system equipped with a Waters model 600 pump (Waters Associates, Milford, MA), a 717 plus autosampler, a Hamilton RPX-X200 analytical cation exchange column (250 mm×4.1 mm), a Waters post column reaction module with a Waters reagent manager pump, a Waters model 464 electrochemical detector with a gold-working electrode and a base resistant Ag/AgCl reference electrode. […]

Amino acid sequences for entries named in this document (tags omitted).
UniProt P36858, whole entry: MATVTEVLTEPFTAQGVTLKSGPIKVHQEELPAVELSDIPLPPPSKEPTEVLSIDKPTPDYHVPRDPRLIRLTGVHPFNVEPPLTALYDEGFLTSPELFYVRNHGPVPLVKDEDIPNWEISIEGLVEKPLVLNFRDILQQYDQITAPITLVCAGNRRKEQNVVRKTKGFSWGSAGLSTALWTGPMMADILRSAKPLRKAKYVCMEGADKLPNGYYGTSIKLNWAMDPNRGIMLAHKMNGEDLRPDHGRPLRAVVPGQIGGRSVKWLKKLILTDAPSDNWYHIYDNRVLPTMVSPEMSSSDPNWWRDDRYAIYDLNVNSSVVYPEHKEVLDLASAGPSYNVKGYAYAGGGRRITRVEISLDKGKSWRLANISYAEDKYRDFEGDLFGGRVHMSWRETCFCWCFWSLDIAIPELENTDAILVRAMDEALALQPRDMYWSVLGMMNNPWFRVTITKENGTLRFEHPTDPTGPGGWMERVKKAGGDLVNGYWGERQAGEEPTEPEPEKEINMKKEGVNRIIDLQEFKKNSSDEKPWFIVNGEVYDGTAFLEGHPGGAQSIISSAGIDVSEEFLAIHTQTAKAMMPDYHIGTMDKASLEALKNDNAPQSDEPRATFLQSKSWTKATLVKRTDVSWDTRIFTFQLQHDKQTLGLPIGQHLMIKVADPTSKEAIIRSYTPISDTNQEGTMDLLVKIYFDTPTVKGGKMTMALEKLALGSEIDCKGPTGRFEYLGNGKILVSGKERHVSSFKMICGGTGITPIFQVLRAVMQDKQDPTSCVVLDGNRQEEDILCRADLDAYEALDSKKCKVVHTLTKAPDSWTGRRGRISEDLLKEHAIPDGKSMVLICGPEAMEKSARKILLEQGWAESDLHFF

[2] = tested on: Diaphorase (EC 1.8.1.4) from Clostridium kluyveri; test: RDX biotransformation assay with diaphorase; conditions: for % Carbon recovery: of total carbon mass in the transformed RDX (78 μmole); for % Nitrogen recovery: of total nitrogen mass in the transformed RDX (78 μmole)
Method: Enzyme preparation. Diaphorase (BC 1.8.1.4) from Clostridium kluyveri was obtained from Sigma Chemicals, Canada, as a lyophilized powder. The enzyme was suspended in 50 mM potassium phosphate buffer (pH 7.0) and filtered through a Biomax-SK membrane (Sigma Chemicals) before resuspension in the same buffer. The protein concentration was measured by bicinchoninic acid (BCA) kit (Sigma Chemicals) using bovine serum albumin as standard. The native enzyme activity was estimated (as per company guidelines) spectrophotometrically at 340 nn as the rate of oxidation of NADH using 2,6-dichlorophenol-indophenol as the electron acceptor.
Biotransformation Assays. RDX biotransformation assays with diaphorase were performed in 6 ml glass vials under anaerobic conditions (with an atmosphere of argon) at pH 7.0 and 27° C. Each vial contained RDX (100 μM), NADH (150 μM) and 50 μl of the enzyme (0.5 native units) in a final volume of one ml potassium phosphate buffer (50 mM, pH 7.0). Three different controls were prepared. The first control contained RDX, NADH and buffer without enzyme; the second contained RDX, enzyme and buffer without NADH, and the third contained only RDX and buffer. The reaction time was one hour unless stated otherwise. Samples from the liquid and gas phases in the vials were withdrawn periodically to analyze for RDX and the transformed products as described below. RDX transformation activity of enzyme was expressed as μmoles of RDX transformed h^−1mg^−1 protein.
Inhibition with Oxygen. The effect of oxygen on RDX transformation activity of diaphorase was studied by performing the assays under aerobic and anaerobic conditions at pH 7.0 and 27° C. In another experiment, we determined the role of O2 transformation to superoxide radical anion (O2●^−) in the inhibition of RDX biotransformation. This was done by incubating the RDX with diaphorase in the presence of NADH, cytochrome c (100 μM and superoxide dismutase (SOD) (150 μg/ml) as described previously (Anusevicius et al., 1998). The absorption of reduced cytochrome c was monitored at 550 nm.
Preparation ofapoenzyme (Deflavo Enzyme) and its Reconstitution. The deflavo form of diaphorase was prepared as described before (Madigan et al., 1993 and Tedeschi et al., 1995) with some modifications. The holoenzyme was dialyzed for 48 hours at 4° C. against a dialysis solution composed of 100 mM potassium phosphate buffer (pH 7.0), EDTA (0.1 mM), glycerol (10% v/v) and KBr (3 M). The dialysis buffer was changed every 6 hours. The reconstitution of apoenzyme was carried out in ice cold potassium phosphate buffer (pH 7.0) in the presence of glycerol (10% v/v). FMN was added at variable concentrations (0-250 μM) to the apoenzyme preparation. The unbound FMN was removed by washing the enzyme with the same buffer using Biomax-5K membrane centrifuge filter units. […]
Analytical Procedures. RDX was analyzed by a reversed phase-high performance liquid chromatograph (RP-HPLC) connected to photodiode array (PDA) detector (λ254 nm). […] Methylenedinitramine was analyzed by a Micromass™ bench-top single quadrupole mass detector attached to a Hewlett Packard 1100 series HPLC system equipped with a photodiode array detector. […] Methylenedinitramine was detected as its deprotonated molecular mass ion [M−H] at 135 Da and confirmed by comparison with a reference standard (Halasz et al., 2002). […]

[3] = Photolysis of RDX in aqueous solution at 350 nm; conditions: RDX after 16 h of photolysis at 350 nm
Method: Irradiation Experiments. A Rayonet photoreactor RPR-100 fitted with a merry-go-round apparatus (Southern New England Co, Hamden, Conn.) equipped with sixteen 350 nm lamps were used as light sources. Photolysis was conducted in 20 ml tubes made of quartz. Each tube was charged with a 10 ml of an aqueous solution of RDX (10 mg/L) in the presence and absence of acetone (250 ppm, v/v). Photolysis was carried out in non degassed quartz tubes sealed with teflon coated mininert valves. Controls containing RDX were kept in the dark during the course of the experiment. The temperature of the reactor was maintained at 25° C. by maintaining the apparatus in a cold room at 10° C. during irradiation. Light intensities, λ 350=3.0 10^−6 einstein ml^−1s^−1 (RPR-350 nm lamp tubes emitting >90% of their energy at 350 nm) were measured using ferrioxalate actinometry.
Analytical Procedures. […] The product was detected as its protonated molecular mass ion [M+H].
The cyclic carbinol intermediate (I), its ring cleavage product (IV) and their subsequent hydrolyzed products including methylenedinitramine (VI) and 4-nitro-2,4-diaza-butanal (V) were analyzed as described previously using LC/MS (ES−). […]
Formic acid, NO2— and NO3— were measured using a Hp3D CE instrument model 1600 equipped with a diode array detector. […]

[4] = Decomposition of methylenedinitramine in water

Question: Which “Concentration of Reactants/metabolites” value ([1]; RDX transformation, after 150 minutes of reaction, pH 7.0, 30° C., anaerobic, NADPH) does the source give for Methylenedinitramine here?
Answer: 10 µmol

Question: What about the “% Carbon recovery” value ([1]; of total carbon mass in the transformed RDX (86 μmole)) of the same substance?
Answer: 3.87%

Question: What about the “% Nitrogen recovery” value ([1]; of total nitrogen mass in the transformed RDX (86 μmole)) of the same substance?
Answer: 7.75%

Question: And the “Concentration of Reactants/metabolites” value ([2]; RDX transformation, pH 7.0, 27° C., anaerobic, NADH)?
Answer: 9.2 µmol

Question: What about the “% Carbon recovery” value [2] of the same substance?
Answer: 4.0%

Question: And the “% Carbon recovery” value ([2]; listed as methylenedinitramine)?
Answer: 4%

Question: What about the “% Nitrogen recovery” value [2] of the same substance?
Answer: 8.0%

Question: What about the “% Nitrogen recovery” value ([2]; listed as methylenedinitramine) of the same substance?
Answer: 8%

Question: What about the C-content % [3] of the same substance?
Answer: 0.9%

Question: And the N-content % [3]?
Answer: 1.9%

Question: And the stability ([4]; pH 7.0, decomposes into N2O and HCHO)?
Answer: quite unstable

Question: What about the stability in water ([4]; pH 7.0 and 27° C.) of the same substance?
Answer: unstable
